## Apparent affinities of Ab-14 variants for a coronavirus HR2 peptide

The target is the same throughout: PDVDLGDISGINAS, from the HR2 region of SARS-CoV-2 spike.

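Phage display of a naive human antibody library on the peptide gave the parent. Designed CDR sequences, proposed from the first random library and measured here. Several design methods are mixed in this list. The scFvs were displayed on barcoded MATa yeast, the peptide on MATalpha yeast. Mating (16 h, 30 °C) was followed by selection of diploids and sequencing of their barcodes. Each replicate has its own calibration line, from reference interactions of the BCL2 family. Mating was done six times.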

The variants keep the heavy chain, the linker and the frameworks of Ab-14 (scFv order VH, three GGGGS repeats, VL).
VH: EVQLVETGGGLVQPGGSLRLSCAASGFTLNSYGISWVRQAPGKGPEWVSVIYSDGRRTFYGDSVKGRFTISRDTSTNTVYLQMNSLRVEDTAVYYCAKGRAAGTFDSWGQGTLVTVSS
VL: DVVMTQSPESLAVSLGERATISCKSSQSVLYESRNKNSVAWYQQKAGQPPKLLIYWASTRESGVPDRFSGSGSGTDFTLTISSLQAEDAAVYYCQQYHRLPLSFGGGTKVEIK

The parent's light chain CDRs are KSSQSVLYESRNKNSVA, WASTRES, QQYHRLPLS; each variant's own CDRs replace them letter for letter.
This list holds designs with at most six substitutions.
The read-out is the apparent dissociation constant on a log10 scale (nM): the lower, the stronger.
The mean shown is taken over the replicates in which the pair was detected.
"ND" means that the variant was in the library but no mating with the target was seen in that replicate; the authors take this as a sign of poor binding, and no number exists.
The authors' rule: three or more of the six replicates give a measured affinity, fewer mean a poor binder.
The range of this assay differs from that of the first round, and the authors advise against merging the two.
Nonspecific signal, from three strains lacking the peptide, appeared in 4% of pairings of all light chain designs, centred on 2.64 (5% of these signals below 1.59); values are not corrected for it.

* KMSQSVLMEQRNKNSVA, DASLRES, QQYHRLPLS -> -0.36, -0.64, -0.59, -0.75, -0.73, -0.46 (mean -0.59)
* KSYQSVWYESRNKNSVA, NASLRCS, QQYHRLPLS -> 1.39, 1.55, 1.25, 1.13, 1.51, 1.93 (mean 1.46)
* HSSQSWLYESRGKNSVA, GASMRES, QQYHRLPLS -> 0.99, 1.00, 0.88, 0.68, 1.85, 1.09 (mean 1.08)
* KSSQAVLYESRNKNSIA, NGSTRES, QQYHRLPLS -> 0.24, 0.23, 0.30, 0.02, 0.22, 0.35 (mean 0.23)
* KSSQSVLMESRNKNSVA, EASTRES, QNYHRLPLQ -> 1.45, 1.30, 1.34, 1.27, 1.14, 1.38 (mean 1.31)
* KYYPSYLYESRNKNSVA, GASTRES, QQYHRLPLS -> 0.18, 0.23, -0.09, 0.13, -0.15, 0.25 (mean 0.09)
* KFSQSEDYESRNKNSVA, NAQTRMS, QQYHRLPLS -> -0.16, -0.36, -0.50, -0.32, -0.37, -0.14 (mean -0.31)
* KSSQSVLKESRNQNSVA, WASTQES, QQYHRLPLS -> ND, ND, ND, 2.41, ND, ND
* KLSQSVDYESRNKAQVA, DASTRMS, QQYHRLPLS -> 0.26, 0.20, 0.03, -0.09, -0.04, 0.20 (mean 0.09)
* KSSQSVLYESRNKNCVA, WASTRES, QQYHRLPLS -> ND, 2.16, ND, ND, ND, ND
* KFSQSVLYESRMKNSVA, NASTRES, QQYHQLPLS -> 0.00, 0.00, 0.08, 0.20, 0.22, 0.35 (mean 0.14)
* KLRQSMEYESRNKNSVA, WASTRLS, QQYHRLPLS -> 1.49, 1.72, 1.31, 0.99, 1.14, 1.34 (mean 1.33)
* KFSPSVLYESRNKNSVA, EASTRES, QQYHRLPLS -> 1.47, 0.82, 0.62, 0.84, 2.47, 0.62 (mean 1.14)
* KSEQGVLYESRNKNSVA, GASQRES, QQYHRLPLS -> 0.16, 0.01, 0.13, 0.14, -0.15, 0.15 (mean 0.07)
* KSSASVLYESGNGNSVA, SASTRES, QQYHRLPLS -> 0.30, 0.50, 0.39, -0.22, 0.03, 0.63 (mean 0.27)
* FSQQSVLYDSRNKNSVA, WASTRES, QQYMRLPLS -> ND, 2.18, 1.44, 3.08, 1.45, 2.78 (mean 2.19)
* KLHQSTLYESRNKNSVA, AASTRES, QQYHRLPLS -> 0.57, 0.08, 0.09, -0.02, 0.23, 0.21 (mean 0.19)
* KSSQSWLYESRNKNSVA, GASVRES, QQYHRLPLS -> 0.12, 0.05, -0.19, -0.15, 0.02, 0.12 (mean -0.01)
* KSSQSVLYDSRNQNSVA, WASTRES, QQYHRLPLS -> 1.07, 1.12, 1.09, 1.31, 1.59, 1.15 (mean 1.22)
* KLSQSELYESRNKNSVA, NASTRSS, QQYHRLPLS -> -0.43, -0.14, -0.49, -0.80, -0.48, -0.48 (mean -0.47)
* KSSISYLYESMNKNSVA, KGSTRES, QQYHRLPLS -> 0.74, 0.10, 0.60, 0.30, 0.20, 0.47 (mean 0.40)
* KLSQSVLYESRNKNSVA, NASTREQ, QQYHRLPLE -> -0.22, -0.25, -0.54, -0.44, -0.37, -0.04 (mean -0.31)
* KSSQSLLYESGNKNSVA, WASTRES, QQYHRLPLS -> 0.42, 0.79, 0.75, 0.87, 0.41, 0.91 (mean 0.69)
* KQSQSVSGESRNKNSVA, MASTRES, QQYHRLPLS -> 1.11, 0.27, 0.53, 0.56, 0.91, 0.87 (mean 0.71)
* KFSQSVLYESRNKNNVA, NASTRES, QQYHRLPLS -> -0.17, -0.28, -0.11, -0.11, -0.29, -0.10 (mean -0.17)
* KLSQSVLYESRNFNSVA, NASTREV, QQYHRLPLS -> -0.19, -0.17, -0.17, -0.37, -0.44, -0.11 (mean -0.24)
* KLSQSQEYESRNKNSVA, NASTRES, QQYHRLPLS -> -0.17, -0.27, -0.37, -0.45, -0.44, -0.33 (mean -0.34)
* KISQEVWYESRNKNSVA, EASLRES, QQYHRLPLS -> 0.07, -0.13, -0.09, -0.32, -0.22, -0.08 (mean -0.13)
* KFSQSELYESRNKNSVA, GASTRES, QQYHRLPLS -> -0.16, -0.24, -0.40, -0.51, -0.51, -0.23 (mean -0.34)
* LSSISYLYESPNKNSVA, EASTREV, QQYHRLPLS -> 0.59, 0.13, -0.04, 0.02, 0.06, 0.37 (mean 0.19)
* KSSQSELYESVNKNSVA, HASTRES, QQYHRLPLS -> 0.55, 0.60, 0.51, 0.10, 0.12, 0.25 (mean 0.35)
* KSSQSVLYESRNTNSVA, AASTRES, QQYHMLPLS -> 1.08, 0.71, 0.64, 0.49, 0.41, 1.03 (mean 0.72)
* KSSQSWLYESRNKNSVA, QASTREQ, QQYHRLPLS -> 0.06, -0.30, 0.30, 0.09, 0.44, -0.21 (mean 0.06)
* KVEQSTLYESRNKNSVA, NASTRES, QQYHRLPLS -> -0.23, -0.44, -0.36, -0.43, -0.44, -0.24 (mean -0.36)
* KSSQSVLYDSRNKNSVA, WASTRES, QQYCRLPLS -> ND, ND, ND, ND, ND, ND
* KSAQSVLYESRYKNSVA, WDSTRES, QQYHRLPLS -> ND, ND, ND, ND, ND, ND
* KISQSVDYESTNKNSVA, WASTRES, QQYHRLPLS -> ND, 2.13, 2.91, ND, 2.19, 1.60 (mean 2.20)
* KLSQSMLYESRNKNSVA, EASTRLS, QQYHRLPLS -> -0.29, -0.45, -0.35, -0.49, -0.59, -0.30 (mean -0.41)
* KLSQSVLYEWRNKNSVA, DASTRES, QQYHRLPLS -> -0.27, -0.17, -0.36, -0.37, -0.28, -0.23 (mean -0.28)
* KCSTSNLYESRNKNSVA, NASTRIS, QQYHHLPLS -> 0.47, 0.36, 0.30, 0.27, 0.13, 0.48 (mean 0.33)
* KSSWSVLTESRNKNSVA, WASTRCS, FQYHVLPLS -> 0.96, ND, ND, ND, ND, ND
* KYSQSDLYESRNDNSVA, WATTRES, QQYHRLPLS -> 0.74, 0.41, 1.07, 0.95, 0.69, 0.71 (mean 0.76)
* KMSQSVLDESRNKNSVA, DASTRFS, QQYLRLPLS -> 0.28, 0.26, 0.22, 0.07, 0.17, 0.40 (mean 0.23)
* KWSWSVLFESRNKNSVA, DASTRES, QQYHRLPLS -> -0.22, -0.14, -0.15, -0.30, -0.19, -0.08 (mean -0.18)
* KSSQSVLYESKNKNSVA, WASERES, QQYHRLPLS -> 1.12, 1.19, ND, 2.39, ND, ND (mean 1.57)
* KLEQSSLYESRNKNSVA, NASTRES, QQYHRLPLS -> -0.20, -0.35, -0.34, -0.27, -0.38, -0.04 (mean -0.26)
* KQSQSGLCESRNKNSVA, DASTRES, QQYHRLPLS -> 0.11, 0.08, 0.13, 0.05, 0.49, 0.19 (mean 0.18)

From the AlphaSeq antibody data of Li et al. 2023 (doi:10.1038/s41467-023-39022-2), copy in the FLAb collection.